# According to PubChem BioAssay AID651589 (Sanford-Burnham Center for Chemical Genomics, 2012):
# This is a selection; strong and weak results do not stand in their true shares. Calls of active or inactive are those of the source.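 Rule for the calls: active = mean inhibition of the reporter signal across four replicates at the single tested dose of 50% or more; inactive = the rest.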
# Experiment: HIF-1a luciferase reporter signal reduction – MiaPaCa-2 cells, single concentration, counter-screen for HIF-2a inhibitor project, confirmation (AID 651589)
# Conditions: MiaPaCa-2 HIF-1a luciferase reporter, desferoxamine, overnight; at 18.8 µM; active compounds read high
row,Structure (SMILES),inhibition
1,CCCCCCCCCCCCCCCC1C[N+](C)(C)CCOP(C)(=O)O1 (stereo unspecified),active: 77.3%
